Assay results published in patent US11242354B2, “4-sulfur substituted podophyllotoxin derivative and preparation method therefor and use thereof” (priority 2017, dated 2022).

System: human normal hepatocytes HL-7702
Assay: MTT test on human normal hepatocytes HL-7702
Conditions: read-out: IC50 HL-7702; human normal hepatocytes HL-7702, MTT, 48 h

Substance	IC50 [µM]
4β-S-(3-phenyl-1,3,4-thiadiazol-2(3H)thione potassium salt-5)-4demethylepipodophyllotoxin [Compound 26]	43.4 ± 4
4β-S-(3-phenyl-1,3,4-thiadiazol-2(3H)thione potassium salt-5)-podophyllotoxin [Compound 25]	57.5 ± 2.99
